Article PMC3285607 (2012)

What was measured:
KB-1753 [1] = target: T1, KB-1753 (synthetic construct, N-terminal FITC label (FITC-KB-1753) in the fluorescence polarization assay; synthetic phage-display peptide. The sequence is not printed here, so it is taken from the Gαi1·GDP·AlF4-/KB-1753 crystal …); experiment: FP; GDP·AlF4-
T1 chain: RGYYHGIWVGE

KB-1753 [2] = target: T1, KB-1753; experiment: FP; GDP

B1: Gαi1, wild type, full-length, hexahistidine-tagged (natural protein)
chain: MGCTLSAEDKAAVERSKMIDRNLREDGEKAAREVKLLLLGAGESGKSTIVKQMKIIHEAGYSEEECKQYKAVVYSNTIQSIIAIIRAMGRLKIDFGDSARADDARQLFVLAGAAEEGFMTAELAGVIKRLWKDSGVQACFNRSREYQLNDSAAYYLNDLDRIAQPNYIPTQQDVLRTRVKTTGIVETHFTFKDLHFKMFDVGGQRSERKKWIHCFEGVTAIIFCVALSDYDLVLAEDEEMNRMHESMKLFDSICNNKWFTDTSIILFLNKKDLFEEKIKKSPLTICYPEYAGSNTYEEAAAYIQCQFEDLNKRKDTKEIYTHFTCATDTKNVQFVFDAVTDVIIKNNLKDCGLF
Binder B1 has a Kd (KB-1753 [1]) of 470 nM and a Kd (KB-1753 [2]) of 6.7 µM.
